From ChEMBL document CHEMBL5380778, “Structure-Directed Discovery of Potent Soluble Epoxide Hydrolase Inhibitors for the Treatment of Inflammatory Diseases” (J Med Chem, 2023)

Test system: Mus musculus
Test: Anti-inflammatory activity in L-arginine-induced acute pancreatitis kunming mouse model assessed as reversal of L-arginine induced pancreatic injury by measuring total score at 5 mg/kg, ip pre-treated with L-arginine for 14 hrs followed by compound treatment and measured after 10 hrs by histologic scoring analysis (reference value: 6.25 +/- 0.96)
Type: functional

`Cc1ccc(-c2cc(C(F)(F)F)nn2-c2ccc(S(N)(=O)=O)cc2)cc1` [CELECOXIB] gave an Activity of 3.75.
